Consider eight compounds from PubChem BioAssay (NCI).

Structures are written as SMILES. Only a part is listed here, and it is no random draw. Some salts or complexes appear as unconnected parts, following the source record. Where a structure was tested more than once in an assay, its records may differ in their call. Activity calls are given as the source filed them. Rule as the data show it: active = growth inhibition above about 70%; inactive = the rest.

The test in a line: NCI Yeast Anticancer Drug Screen. Data for the rad14 strain (AID 159).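 Also: 0% = growth of vehicle-treated control cultures.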 The note with it: S. cerevisiae rad14 strain growth inhibition, stronger effect = higher value. The protocol:
Growth inhibition of yeast strains with defined genetic alterations is measured as a screen for potential anti-cancer activity. Selected strains with alterations in DNA damage repair or cell cycle control were exposed to compounds and growth inhibition was measured relative to vehicle treated controls. The strain used in this assay is rad14

Consider `[Au].[C-]#N.[C-]#N`, for which the growth inhibition (at 1.2 µM) is inactive: -21%; the growth inhibition (at 3.7 µM) was inactive: -19%; the growth inhibition (at 11.0 µM) was inactive: -9%; the growth inhibition (at 33.0 µM) is inactive: -5%; the growth inhibition (at 100.0 µM) was inactive: -14%.

Take `COc1ccccc1N.O=[N+]([O-])c1cc([N+](=O)[O-])cc([N+](=O)[O-])c1`: the growth inhibition by setting is: (at 1.2 µM) inactive: 2%; (at 3.7 µM) inactive: 18%; (at 11.0 µM) inactive: 56%; (at 33.0 µM) active: 99%; (at 100.0 µM) active: 99%.

For `Cc1c2ccccc2cc2ccccc12.O=[N+]([O-])c1cc([N+](=O)[O-])c(O)c([N+](=O)[O-])c1`, the growth inhibition reads like this: (at 1.2 µM) inactive: 0%; (at 3.7 µM) inactive: 7%; (at 11.0 µM) inactive: 17%; (at 33.0 µM) active: 74%; (at 100.0 µM) active: 97%.

For `Cc1ccc2ccc3ccc4ccccc4c3c2c1.O=C1c2cc([N+](=O)[O-])ccc2-c2c1cc([N+](=O)[O-])cc2[N+](=O)[O-]`, the growth inhibition runs as follows: (at 1.2 µM) inactive: 2%; (at 3.7 µM) inactive: 6%; (at 11.0 µM) inactive: 12%; (at 33.0 µM) inactive: 22%; (at 100.0 µM) inactive: 28%.

As for `Cc1cc2ccccc2cc1C.O=[N+]([O-])c1cc([N+](=O)[O-])cc([N+](=O)[O-])c1`, the growth inhibition is, setting by setting: (at 1.2 µM) inactive: 0%; (at 3.7 µM) inactive: 0%; (at 11.0 µM) inactive: 4%; (at 33.0 µM) inactive: 19%; (at 100.0 µM) active: 89%.

As for `Nc1ccccc1.O=[N+]([O-])c1cc([N+](=O)[O-])cc([N+](=O)[O-])c1`, the growth inhibition is, setting by setting: (at 1.2 µM) inactive: 2%; (at 3.7 µM) inactive: 11%; (at 11.0 µM) inactive: 39%; (at 33.0 µM) active: 99%; (at 100.0 µM) active: 99%.

`O=[N+]([O-])C(F)(COCC(O)CO)[N+](=O)[O-]` (stereo not given): the growth inhibition runs as follows: (at 1.2 µM) inactive: -5%; (at 3.7 µM) inactive: -10%; (at 11.0 µM) inactive: 15%; (at 33.0 µM) active: 72%; (at 100.0 µM) active: 92%.

On to `[Au+].[Au+].c1ccc([PH+](c2ccccc2)c2ccccc2)cc1.c1ccc([PH+](c2ccccc2)c2ccccc2)cc1.n1n[n-]c(-c2nnn[n-]2)n1`, for which the growth inhibition runs as follows: (at 1.2 µM) inactive: 1%; (at 3.7 µM) inactive: 24%; (at 11.0 µM) active: 95%; (at 33.0 µM) active: 99%; (at 100.0 µM) active: 98%.
